In PMC9379334, “Determination of ceftriaxone in human plasma using liquid chromatography–tandem mass spectrometry” (Wellcome Open Research, 2022):

Assay: Stability of ceftriaxone in spiked human plasma under different storage conditions (LC-MS/MS)
Format: physicochemical
Details: -80°C; 7 months (224 days); all anticoagulants

CO/N=C(\C(=O)N[C@@H]1C(=O)N2C(C(=O)O)=C(CSc3nc(=O)c(=O)[nH]n3C)CS[C@H]12)c1csc(N)n1 [ceftriaxone]
Long-term stability in plasma: good stability
